Reference: patent US20250304703A1 (AKESO BIOPHARMA, published 2025)
Where a chain is given by its changes, count along the chain named.

What was measured:
[1] = molecular target: T1, human IL-4RA-hFc (human, UniProt P24394 26-232); assay: competitive ELISA, coat 2 ug/mL, competitor IL4-N-his 0.15 ug/mL (anti-His signal); antibody 3 ug/mL
T1 construct: mature; no linker is stated
T1 sequence (looked up): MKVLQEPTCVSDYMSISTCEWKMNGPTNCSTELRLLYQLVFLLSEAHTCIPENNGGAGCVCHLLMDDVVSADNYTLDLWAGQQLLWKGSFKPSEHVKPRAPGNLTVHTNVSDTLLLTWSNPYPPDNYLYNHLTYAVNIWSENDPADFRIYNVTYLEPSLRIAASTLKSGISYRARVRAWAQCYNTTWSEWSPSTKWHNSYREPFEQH
Method: The Elisa plates were coated with human IL-4RA-hFc and blocked before the target antibodies were added. […] After the plates were washed, mouse anti-His, HRP (purchased from CoWin Biosciences, Cat No. CW0285A) was added for incubation. The plates were subjected to another wash. A chromogenic reaction was performed by adding TMB (Neogen, 308177) and was then terminated. The Elisa plates were put into a microplate reader immediately, and the OD value of each well in the Elisa plates was read at 450 nm. The data were analyzed and processed by SoftMax Pro 6.2.1.

[2] = molecular target: T2, human IL-4RA-mFc (human, UniProt P24394 26-232); assay: indirect ELISA; antibody 0.333 ug/mL diluted 1:729
T2 construct: mature; no linker is stated; Made by Akeso Biopharma; also used as the immunogen
Method: (§1) Procedures: The Elisa plates were coated with human IL-4RA-hFc or human IL-4RA-mFc and were incubated, and the target antibodies were added after blocking. […] The plates were incubated and washed before TMB (Neogen, 308177) was added for chromogenic reaction. At the end of the reaction, the absorbance at 450 nm was measured by a microplate reader. The data were analyzed and processed by SoftMax Pro 6.2.1.

[3] = molecular target: T2, human IL-4RA-mFc; assay: indirect ELISA; antibody 0 (no-antibody blank)
Method: as §1

B1: positive control antibody dupilumab VAB 16F3-1 (antibody, V domains shown)
VH: EVQLVESGGGLVQPGRSLRLSCEASGFTFDDYAMHWVRQAPGKGLEWVSGLSRTSVSIGYADSVKGRFTISRDNAKNSLYLEMNSLRPEDTALYYCAKWGTRGYFDYWGQGTLVTVSS
VL: DIQMTQSPSSVSASVGDRVTITCRASQDISIWLAWYQQSPGKAPKLLINVASRLQSGVPSRFSGSGSGTDFTLTINSLQPEDFVTYYCQQANSFPITFGQGTRLATKR
**Q.** Which “OD 450 nm” value [1] does the source give for B1 here?
**A.** The value was 0.059 OD.

**Q.** What about the “OD 450 nm” value [2] of the same binder?
**A.** Its value is 0.147 OD.

B2: humanized anti-human IL-4RA antibody 13E5H4L2 (antibody, V domains shown)
VH: QVQLVQSGAEVVKPGASVKVSCKTSGYTFTEYTIHWVRQAPGQSLEWIGGINPNNGGTVYNQKFQGKVTLTVDKSTSTAYMELSSLRSEDTAVYYCARVRRGMDYWGQGTSVTVSS
VL: DIQMTQSPSSLSASVGDRVTITCRASQDVTTAVAWYQQKPGKAPKLLIYSASSRYTGVPSRFSGSGSGTDFTLTISSVQPEDLATYYCQQHYSAPWTFGGGTNLEIKR
**Q.** For B2, which “OD 450 nm” value [3] is on record?
**A.** Its value is 0.063 OD.

B3: humanized anti-human IL-4RA antibody 13E5H3L3 (antibody, V domains shown)
VH: B2 VH with T24A, S44G, V59N, N61A, K67R, L70I
VL: B2 VL with V33L, R54L, V78L, L83F
**Q.** For B3, which “OD 450 nm” value [3] is on record?
**A.** The value was 0.056 OD.
